# According to article PMC11154460, “Effects of Aqueous Boundary Layers and Paracellular Transport on the Efflux Ratio as a Measure of Active Transport Across Cell Layers” (Pharmaceutics, 2024):
# Sequences of proteins named here, by UniProt entry; tags and fusion partners are left off.
# UniProt P08183, whole entry: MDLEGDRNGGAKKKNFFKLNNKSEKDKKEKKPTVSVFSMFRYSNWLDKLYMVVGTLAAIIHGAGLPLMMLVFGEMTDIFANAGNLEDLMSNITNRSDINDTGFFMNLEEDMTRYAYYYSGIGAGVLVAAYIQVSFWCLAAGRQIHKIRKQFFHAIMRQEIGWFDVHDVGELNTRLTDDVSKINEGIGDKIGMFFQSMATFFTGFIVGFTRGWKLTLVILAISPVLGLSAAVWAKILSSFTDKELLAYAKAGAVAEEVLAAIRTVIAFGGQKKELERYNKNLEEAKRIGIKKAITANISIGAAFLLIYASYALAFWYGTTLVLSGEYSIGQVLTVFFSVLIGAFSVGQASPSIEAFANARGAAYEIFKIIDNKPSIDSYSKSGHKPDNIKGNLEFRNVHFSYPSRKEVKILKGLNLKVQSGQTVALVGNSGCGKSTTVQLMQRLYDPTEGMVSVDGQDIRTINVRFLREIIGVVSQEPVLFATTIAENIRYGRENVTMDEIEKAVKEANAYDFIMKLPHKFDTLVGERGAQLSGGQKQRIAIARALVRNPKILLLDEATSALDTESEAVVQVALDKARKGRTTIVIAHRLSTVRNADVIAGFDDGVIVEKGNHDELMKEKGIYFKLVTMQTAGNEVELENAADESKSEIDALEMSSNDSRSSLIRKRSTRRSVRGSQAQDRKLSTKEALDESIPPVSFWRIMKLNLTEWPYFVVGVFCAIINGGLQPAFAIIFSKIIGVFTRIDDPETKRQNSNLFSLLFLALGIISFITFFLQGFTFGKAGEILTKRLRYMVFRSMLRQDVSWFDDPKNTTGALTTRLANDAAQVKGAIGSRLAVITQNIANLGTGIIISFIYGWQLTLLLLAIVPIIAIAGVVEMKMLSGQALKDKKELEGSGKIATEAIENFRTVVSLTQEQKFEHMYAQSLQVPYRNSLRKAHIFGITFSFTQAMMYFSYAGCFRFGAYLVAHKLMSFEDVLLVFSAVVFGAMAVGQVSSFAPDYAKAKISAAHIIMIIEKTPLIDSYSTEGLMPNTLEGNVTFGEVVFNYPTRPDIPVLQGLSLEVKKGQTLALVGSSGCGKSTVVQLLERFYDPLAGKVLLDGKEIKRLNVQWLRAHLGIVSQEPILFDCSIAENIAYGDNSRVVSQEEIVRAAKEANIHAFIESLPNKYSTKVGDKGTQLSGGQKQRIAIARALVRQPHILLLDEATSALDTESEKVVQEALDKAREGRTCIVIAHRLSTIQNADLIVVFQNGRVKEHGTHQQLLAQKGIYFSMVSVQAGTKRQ
# Biological target: human P-gp (Homo sapiens, UniProt P08183)
# Settings: MDCK-MDR1, pH 7.4
structure (smiles),measurement,value
"C=C[C@H]1C[N@@]2CC[C@H]1C[C@@H]2[C@@H](O)c1ccnc2ccc(OC)cc12 [Quinidine, quinidine]","Papp,A→B",12.4 ± 0.07 (cm/s) ×10^−6
